Structures can show the parent of a compound that is named as a salt.
Test: Acute single dose toxicity in isotonic saline (ip, iv, sc)
Format: in vivo, Swiss CD1 mice
Settings: 5 days
Method: In vivo toxicity of an analogue is measured through administration of a range of doses to animals, typically mice, by a route defined in part by the intended clinical use. […]. Analogues less toxic than indolicidin are preferred.
The acute, single dose toxicity of various indolicidin analogues is tested in Swiss CD1 mice using various routes of administration. In order to determine the inherent toxicities of the peptide analogues in the absence of any formulation/delivery vehicle effects, the peptides are all administered in isotonic saline with the final pH between 6 and 7.
Intraperitoneal route. […]. […] The LD50 values are calculated using the method of Reed and Muench (J. of Amer. Hyg. 27: 493-497, 1938).
Intravenous route. […]. […].
Subcutaneous route. The toxicity of MBI 11CN is also determined after subcutaneous (SC) administration. […]. After administration, the mice are observed for a period of 5 days. None of the animals died at any of the dose levels within the 5 day observation period. […]. […] These symptoms are reversible, disappearing in all mice by the second day of observations.

## CC[C@H](C)[C@H](N)C(=O)N[C@@H](CC(C)C)C(=O)N[C@@H](CCCCN)C(=O)N[C@@H](CCCCN)C(=O)N[C@@H](Cc1c[nH]c2ccccc12)C(=O)N1CCC[C@H]1C(=O)N[C@@H](Cc1c[nH]c2ccccc12)C(=O)N[C@@H](Cc1c[nH]c2ccccc12)C(=O)N1CCC[C@H]1C(=O)N[C@@H](Cc1c[nH]c2ccccc12)C(=O)N[C@@H](CCCNC(=N)N)C(=O)N[C@@H](CCCNC(=N)N)C(=O)N[C@@H](CCCCN)C(N)=O [MBI 11CN HCl, I L K K W P W W P W R R K]
  LD50: 5.8 mg/kg
  MTD: <4 mg/kg

Reference: patent US6538106B1, “Compositions and methods for treating infections using analogues of indolicidin” (priority 1996, dated 2003)
